Laboratory results published in ChEMBL document CHEMBL1131038, “Derivatives of the triazoloquinazoline adenosine antagonist (CGS 15943) having high potency at the human A2B and A3 receptor subtypes” (J Med Chem, 1998).

By UniProt entry, the sequences of proteins in these tests, tags left out.
UniProt P25099, whole entry: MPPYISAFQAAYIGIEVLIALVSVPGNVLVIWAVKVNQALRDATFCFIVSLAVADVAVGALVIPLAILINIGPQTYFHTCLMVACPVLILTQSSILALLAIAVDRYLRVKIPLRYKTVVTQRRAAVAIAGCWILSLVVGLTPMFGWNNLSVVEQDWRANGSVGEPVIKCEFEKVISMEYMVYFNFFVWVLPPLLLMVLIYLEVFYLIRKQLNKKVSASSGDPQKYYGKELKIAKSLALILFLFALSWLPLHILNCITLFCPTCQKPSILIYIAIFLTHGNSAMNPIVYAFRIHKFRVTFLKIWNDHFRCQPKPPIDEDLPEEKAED

What was measured:
[1] = target: Adenosine receptor A1 (Rattus norvegicus, UniProt P25099)
[2] = target: T1, Adenosine receptor A2b (Homo sapiens, UniProt P29275); assay: Inhibition of 50 uM 5`-(N-ethylcarboxamido)adenosine induced cAMP production in CHO cell line expressing human Adenosine A2B receptor; type: cell-based
T1 sequence (P29275 whole entry): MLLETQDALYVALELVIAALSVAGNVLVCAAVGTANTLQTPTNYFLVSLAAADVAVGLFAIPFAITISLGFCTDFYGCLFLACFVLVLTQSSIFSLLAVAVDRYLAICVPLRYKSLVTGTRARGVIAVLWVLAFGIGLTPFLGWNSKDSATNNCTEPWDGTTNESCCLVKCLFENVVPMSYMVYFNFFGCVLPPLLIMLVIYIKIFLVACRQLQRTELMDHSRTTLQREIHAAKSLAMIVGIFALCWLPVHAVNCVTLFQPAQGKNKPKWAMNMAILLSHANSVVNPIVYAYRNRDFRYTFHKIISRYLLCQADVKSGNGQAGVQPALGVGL

[3] = target: T1, Adenosine receptor A2b; assay: pA2 value at human Adenosine A2B receptor from Schild plots with slopes approaching unity; conditions: read-out: pA2 (converted)
[4] = Ratio against rat A2A receptor and Human A3 receptor
[5] = Ratio against rat A1 receptor and Human A3 receptor

Nc1ccc(CC(=O)Nc2nc3ccc(Cl)cc3c3nc(-c4ccco4)nn23)cc1
Ki [1]: 24.9 nM

Nc1nc2ccc(Cl)cc2c2nc(-c3ccco3)nn12 [CGS-15943]
IC50 [2]: 1200 nM
Kb [3]: 10 nM

O=C(CCc1ccccc1)Nc1nc2ccc(Cl)cc2c2nc(-c3ccco3)nn12
Selectivity ratio [4]: 1.6
Selectivity ratio [5]: 1.9
